Measurements published in patent US4948807A, “Phenyl carbamates” (priority 1985, dated 1990).

How the values were obtained:
[1] = tested on: brain acetylcholinesterase
Method: The effect of each compound on brain acetylcholinesterase in vivo was measured, after subcutaneous or oral administration to mice. Animals were sacrificed, at different times ranging from 0.25-8 hours after drug administration. The brain was rapidly removed, and the enzyme acetylcholinesterase extracted and solubilized with 0.1% Triton, and its ability to hydrolyse acetylthiocholine assessed as described above (in vitro experiments), in comparison with the enzyme removed from mice injected with normal saline.

in vivo = details: mouse
Method: Mice were given one of at least three different doses of each compound, orally or subcutaneously, a minimum of 10 mice allotted to each dose. The number of animals which died at each dose within 3 hours was determined.
This experiment was repeated after the animals had been pretreated with atropine sulphate, which blocks both peripheral and central muscarinic receptors.
What is important is the safety of the drugs and the presence and severity of side effects that may occur at therapeutic doses. A commonly-used measure of drug safety is the therapeutic index--or LD50 /ED50 [formula]
It is assumed that the therapeutic effect of these anticholinesterase agents results from an elevation of brain cholinergic activity. This in turn, should be related to the degree of inhibition of acetylcholinesterase. For the purpose of the computation of the denominator of the therapeutic ratio, there is used the dose of drug that inhibits the activity of acetylcholinesterase by 50%. […] The numerator is the dose found to kill 50% of the animals within […] of a subcutaneous injection.

| SMILES | % cholinesterase inhibition 3 hours after s.c. administration ([1]; mouse brain, s.c.) | bioavailability after oral administration compared with physostigmine ([1]; oral, in words) | selectivity ratio (in vivo; Degree of protection afforded by pretreatment with atropine) | selectivity ratio (in vivo; Ratio whose head is drawing 10 (Table 3; oral LD50 compared with s.c. LD50)) | selectivity ratio (in vivo; sc, Therapeutic ratio LD50/ED50 s.c.) | Relative potency to physostigmine after oral administration ([1]; mouse brain, oral, physostigmine = 100) | Relative potency to physostigmine after subcut. (s.c.) administration ([1]; mouse brain, s.c., physostigmine = 100) |
| --- | --- | --- | --- | --- | --- | --- | --- |
| CCN(C)C(=O)Oc1cccc(C(C)N(C)C)c1 (centres unmarked) [RA7, N-ethyl, N-methyl-3[1-(dimethylamino)ethyl]phenyl carbamate] | 41% | better bioavailability after oral administration than physostigmine |  |  |  |  |  |
| CNC(=O)Oc1ccc2c(c1)[C@]1(C)CCN(C)[C@@H]1N2C [Physostigmine, reference compound] | 0% |  | 3 | 4.1 | 3.3 | 100 | 100 |
